This is an account of results in PubChem BioAssay AID2751 (The Scripps Research Institute Molecular Screening Center, 2010).

Chains of the proteins cited; added tags and fusions are not shown.
UniProt Q4J6C6, whole entry: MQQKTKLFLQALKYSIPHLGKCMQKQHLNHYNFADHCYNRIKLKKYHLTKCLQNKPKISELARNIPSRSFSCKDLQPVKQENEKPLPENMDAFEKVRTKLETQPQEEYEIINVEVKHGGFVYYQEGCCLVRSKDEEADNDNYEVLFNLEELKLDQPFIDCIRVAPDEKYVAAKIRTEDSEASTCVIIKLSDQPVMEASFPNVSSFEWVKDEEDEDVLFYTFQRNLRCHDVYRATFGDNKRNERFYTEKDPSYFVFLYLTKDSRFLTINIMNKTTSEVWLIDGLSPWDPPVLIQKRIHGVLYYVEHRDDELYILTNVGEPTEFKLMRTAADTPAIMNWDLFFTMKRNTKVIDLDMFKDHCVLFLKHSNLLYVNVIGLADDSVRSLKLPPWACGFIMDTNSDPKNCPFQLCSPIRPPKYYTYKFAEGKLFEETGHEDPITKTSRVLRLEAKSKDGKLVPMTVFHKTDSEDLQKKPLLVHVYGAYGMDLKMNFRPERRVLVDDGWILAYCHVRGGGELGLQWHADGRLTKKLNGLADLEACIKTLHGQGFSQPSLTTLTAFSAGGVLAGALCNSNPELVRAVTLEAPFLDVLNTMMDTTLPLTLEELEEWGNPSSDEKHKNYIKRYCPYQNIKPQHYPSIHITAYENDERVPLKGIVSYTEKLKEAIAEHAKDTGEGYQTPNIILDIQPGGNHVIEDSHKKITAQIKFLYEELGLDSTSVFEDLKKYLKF

Only a part is listed here, and it is no random draw. Some tests of the compounds listed are not included; inactive here does not mean inactive elsewhere. Activity calls are given as the source filed them. Rule as the data show it: active = inhibition above about 43%; inactive = the rest.

The target of this experiment is Prolyl endopeptidase-like (Homo sapiens) (UniProt Q4J6C6). Nature of the experiment: PREPL enzyme inhibitors, primary screen, biochemical, fluorescence polarization (AID 2751).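 Also: 0% = enzyme with DMSO and 100% = wells lacking enzyme.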 Particulars: recombinant PREPL, fluorescence polarization activity-based probe; at 5.96 µM; hits give high values.
Turning to `O=C(NCC1(N2CCCCC2)CCCCC1)c1cccc(Br)c1`, the inhibition was inactive: 42.4%.

In the case of `CCN1CCCC(OC(=O)C2(O)c3ccccc3C=Cc3ccccc32)C1` (centres undefined), the inhibition is inactive: 1.94%.

With `Cc1cc(C(=O)NCC2(N3CCCCC3)CCCCC2)ccc1[N+](=O)[O-]`, the inhibition is inactive: 35.6%.

`COc1ccc(C(=O)NCC2(N(C)C)CCCCC2)cc1`: the inhibition is inactive: 10.9%.

Consider `O=C(NCC1(N2CCCCC2)CCCCC1)c1cc(F)c(F)cc1Cl`, for which the inhibition is inactive: -3.79%.

As to `C=CCN1CCN(CCOC(=O)C(O)(c2ccccc2)c2ccccc2)CC1`, the inhibition is inactive: -0.89%.

Consider `CN(C)c1ccc(C(=O)NCC2(N(C)C)CCCCC2)cc1`, for which the inhibition was inactive: -1.07%.

With `CN(C)C1CCCC1OC(=O)C(O)(c1ccccc1)c1ccccc1` (centres undefined), the inhibition was inactive: 0.99%.

`Cc1ccccc1C(=O)NCC1(N2CCCCC2)CCCCC1`: the inhibition was inactive: 2.82%.

With `Cc1ccc(C(=O)NCC2(N3CCCCC3)CCCCC2)cc1`, the inhibition was inactive: 24.4%.

With `CC(C)N1C(=O)CC2(CCN(CCOC(=O)C(O)(c3ccccc3)c3ccccc3)CC2)C1=O`, the inhibition was inactive: -3.87%.

Turning to `COc1cc(SC)ccc1C(=O)NCC1(N(C)C)CCCCC1`, the inhibition was inactive: -1.27%.

For the compound `CCN(CC)CC(C)C(C)OC(=O)C(O)(c1ccccc1)c1ccccc1` (centres undefined), the inhibition was active: 49%.

With `CN1[C@@H]2CC[C@H]1CC(OC(=O)C(O)(c1ccccc1)c1ccccc1)C2` (some centres undefined), the inhibition was inactive: 4.35%.

On to `O=C(NCC1(N2CCCCC2)CCCCC1)c1cc([N+](=O)[O-])ccc1Cl`, for which the inhibition is inactive: 20.9%.

Take `CN(C)c1cccc(C(=O)NCC2(N(C)C)CCCCC2)c1`: the inhibition is inactive: 7.28%.

In the case of `CC(C)Oc1ccc(C(=O)NCC2(N(C)C)CCCCC2)cc1`, the inhibition was inactive: 2.17%.

Consider `COc1ccc(Br)c(C(=O)NCC2(N3CCCCC3)CCCCC2)c1`, for which the inhibition is inactive: 20.9%.

On to `O=C(OC1CN2CCC1CC2)C(CO)(c1ccccc1)c1ccccc1` (centres undefined), for which the inhibition is inactive: 26.2%.

Turning to `O=C(NCC1(N2CCCCC2)CCCCC1)c1cccc(Cl)c1`, the inhibition was inactive: 18.5%.

For `COc1ccc(Cl)cc1C(=O)NCC1(N(C)C)CCCCC1`, the inhibition was inactive: 17.8%.

Turning to `COc1cccc(C(=O)NCC2(N3CCCCC3)CCCCC2)c1`, the inhibition is inactive: 15%.

Take `COc1cc(C(=O)NCC2(N(C)C)CCCCC2)c([N+](=O)[O-])cc1OC`: the inhibition is inactive: 0.43%.

Regarding `CN(C)C1(CNC(=O)c2ccc(Br)cc2)CCCCC1`, the inhibition is inactive: -6.79%.
